Assay results taken from PubChem BioAssay AID422 (Emory University Molecular Libraries Screening Center, 2006).
“And” between values parts separate entries of the source, which are not always exact repeats. Identical values can stand only once. The list shows a part of the results, in another mix than the full data. The source made the active and inactive calls. Cut-off read from the data, not from the text of the source: active = inhibition above about 30%; inactive = the rest.

Protein sequences, listed by entry. Tags and fused reporters are not part of them.
UniProt P61981, whole entry: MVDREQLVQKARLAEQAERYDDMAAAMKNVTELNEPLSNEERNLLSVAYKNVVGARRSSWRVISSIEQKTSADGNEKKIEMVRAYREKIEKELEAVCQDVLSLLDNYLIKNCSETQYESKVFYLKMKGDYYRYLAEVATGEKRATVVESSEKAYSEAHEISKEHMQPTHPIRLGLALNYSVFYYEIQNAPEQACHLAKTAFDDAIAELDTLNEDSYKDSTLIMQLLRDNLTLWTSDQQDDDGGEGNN

biological target: 14-3-3 protein gamma (Homo sapiens) (UniProt P61981); test: 14-3-3 gamma/Raf peptide interaction modulators – biochemical, fluorescence polarization, primary screen (AID 422); details: FP, 14-3-3gamma / TMR-pS259-Raf peptide binding; at 40 µM; hits give high values;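 note: 0% = protein plus tracer without compound and 100% = blank with tracer alone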

Row | Structure (SMILES) | inhibition
1 | CP(=O)(Nc1ccc(Cl)cc1)Oc1ccc(F)cc1 (stereo not drawn) | inactive: 3.92%
2 | COc1ccccc1OP(C)(=O)Nc1c(C)n(C)n(-c2ccccc2)c1=O (stereo not drawn) | inactive: -0.41%
3 | CP(=O)(Oc1ccccc1)N1CCOC1=O (stereo not drawn) | inactive: -16.5%
4 | CCN(CC)CC(O)COC(=O)C(O)(c1ccccc1)C1CCCCC1 (stereo not drawn) | inactive: 3.9%
5 | N#[O+].[C-]#N.[C-]#N.[C-]#N.[C-]#N.[C-]#N.[Fe+2].[Na+].[Na+] | inactive: 2.81%
6 | Cc1nc2ccc3ccccc3c2o1.O=[N+]([O-])c1cc([N+](=O)[O-])c(O)c([N+](=O)[O-])c1 | inactive: -1.56%
7 | Cn1cc([N+](=O)[O-])nc1[N+](=O)[O-] | inactive: -1.83%
8 | COc1ccccc1OP(C)(=O)Nc1ccc(C)c(C)c1 (stereo not drawn) | inactive: 1.85%
9 | CP(=O)(Nc1ccccn1)Oc1ccccc1 (stereo not drawn) | inactive: 5.61% and inactive: 0.9%
10 | O=[N+]([O-])c1cc([N+](=O)[O-])c(O)c([N+](=O)[O-])n1 | inactive: -5.86%
11 | CP(=O)(Nc1cccc(C(F)(F)F)c1)Oc1ccc(Cl)cc1 (stereo not drawn) | inactive: 4.23%
12 | CC(CNC(=O)C(C)([N+](=O)[O-])[N+](=O)[O-])([N+](=O)[O-])[N+](=O)[O-] | inactive: 0.7%
13 | CP(=O)(Nc1ccccc1F)Oc1ccccc1 (stereo not drawn) | inactive: -7.05%
14 | COc1ccc(NP(C)(=O)Oc2cc(C)cc(C)c2)cc1 (stereo not drawn) | inactive: 0.33%
15 | CP(=O)(Nc1ccccc1)Oc1ccc(F)cc1 (stereo not drawn) | inactive: -2.28%
16 | COc1cc2c(cc1NP(C)(=O)Oc1ccccc1)oc1ccccc12 (stereo not drawn) | inactive: -13.5%
17 | Cc1ccc(Cl)c(OP(C)(=O)Nc2cccnc2)c1 (stereo not drawn) | inactive: 6.68%
18 | CN(C)CCOC(=O)C(O)(c1ccccc1)C1CCCCC1 (stereo not drawn) | inactive: -6.67%
19 | Cc1ccccc1NP(C)(=O)Nc1ccccc1C | inactive: -3.16%

Row | Structure (SMILES) | inhibition
20 | Cc1cc(C)cc(OP(C)(=O)Nc2cccc(Cl)c2C)c1 (stereo not drawn) | inactive: -3.42%
21 | CP(=O)(Nc1ccc2c(c1)OCCO2)Oc1ccccc1 (stereo not drawn) | inactive: 9.28%
22 | CCOP(C)(=S)SCC(=O)NC(C)(CC)C(=O)O (stereo not drawn) | inactive: 5.93%
23 | Cc1ccc(Cl)c(OP(C)(=O)Nc2ccc(F)cc2)c1 (stereo not drawn) | inactive: -5.66%
24 | Nc1nc(N)c([N+](=O)[O-])cc1[N+](=O)[O-] | inactive: -3.2%
25 | Cc1nc2ccc3ccccc3c2s1.O=[N+]([O-])c1cc([N+](=O)[O-])c(O)c([N+](=O)[O-])c1 | inactive: -5.22%
26 | COc1ccc(NP(C)(=O)Oc2ccc(Cl)cc2)cc1 (stereo not drawn) | inactive: 6.83%
27 | O=c1[nH]nc([N+](=O)[O-])[nH]1 | inactive: -175%
28 | CCCOc1ccc(NP(C)(=O)Oc2ccc(Cl)cc2)cc1 (stereo not drawn) | inactive: -1.95%
29 | Cc1c([N+](=O)[O-])no[n+]1[O-] | inactive: 2.51%
30 | Cc1ccc(C)c(NP(C)(=O)Oc2ccccc2)c1 (stereo not drawn) | inactive: -4.71%
31 | Cc1cc(C)cc(OP(C)(=O)Nc2ccccn2)c1 (stereo not drawn) | inactive: 3.92%
32 | CCOC(=O)c1ccc(NP(C)(=O)Oc2cc(C)cc(C)c2)cc1 (stereo not drawn) | inactive: 4.23%
33 | COc1ccccc1OP(C)(=O)Nc1ccc(C)cc1 (stereo not drawn) | inactive: 0.94%
34 | Cc1ccc(NP(C)(=O)Oc2ccccc2)c(C)c1 (stereo not drawn) | inactive: 4.51%
35 | O=C(O)C1(O)c2ccccc2-c2ccccc21 | inactive: -1.46%
36 | CP(=S)(Nn1cnnc1)Oc1ccccc1 (stereo not drawn) | inactive: -1.87%
37 | CCOP(C)(=S)SCC(=O)NC(C)C(=O)O (stereo not drawn) | inactive: -7.11%
38 | O=C(OCC#CCN1CCCCC1)C(O)(c1ccccc1)c1ccccc1 | inactive: -4.84%
